# Article PMC6559944 (Journal of medicinal chemistry, 2019)
# What was measured:
# [1] = test system: Nluc-expressing C. parvum; details: for Efficacy (reduction in oocyst shedding / infection), in words / Efficacy in words: IFN-γ KO mice; for Efficacy (reduction in oocyst shedding / infection), in words: oral, 5 days, doses of Table 3
# [2] = mice, 25 mg/kg PO, feces collected 24 h
smiles,measurement,setting,value
"C#CCOc1ccc2cc(-c3nn(C(C)(C)C)c(N)c3C(N)=O)ccc2c1 [Compound 26, 5-amino-1-(tert-butyl)-3-(6-(prop-2-yn-1-yloxy)naphthalen-2-yl)-1H-pyrazole-4-carboxamide]","Efficacy (reduction in oocyst shedding / infection), in words",[1],Failed efficacy
"CC(C)(CO)Cn1nc(-c2ccc3nc(OC4CC4)ccc3c2)c(C(N)=O)c1N [Compound 5, 5-amino-3-(2-cyclopropoxyquinolin-6-yl)-1-(3-hydroxy-2,2-dimethylpropyl)-1H-pyrazole-4-carboxamide]",Fecal concentration from 25 mg/kg dose,[2],41 µM
same,"Efficacy (reduction in oocyst shedding / infection), in words",[1],significant reduction in oocyst shedding
"CC(C)(CO)n1nc(-c2ccc3nc(OC4CC4)ccc3c2)c(C(N)=O)c1N [Compound 23, 5-amino-3-(2-cyclopropoxyquinolin-6-yl)-1-(1-hydroxy-2-methylpropan-2-yl)-1H-pyrazole-4-carboxamide]",Liabilities: toxicity during efficacy study,[1]; IFN-γ KO mice efficacy study,Signs of toxicity during efficacy
same,"Efficacy (reduction in oocyst shedding / infection), in words",[1],significant reduction in oocyst shedding
"CC(C)(CO)Cn1nc(-c2ccc3cc(OC4CC4)ccc3c2)c(C(N)=O)c1N [Compound 6, 5-amino-3-(6-cyclopropoxynaphthalen-2-yl)-1-(3-hydroxy-2,2-dimethylpropyl)-1H-pyrazole-4-carboxamide]",Efficacy in words,[1]; 8 mg/kg QD for 5 days,efficacious
same,Efficacy in words,[1]; 15 mg/kg QD for 5 days,efficacious
same,Efficacy in words,[1]; 30 mg/kg QD for 5 days,efficacious
same,Efficacy in words,[1]; 60 mg/kg QD for 5 days,efficacious
same,"Efficacy (reduction in oocyst shedding / infection), in words",[1],significant reduction in oocyst shedding

# Where two headings read alike, the source gives them in different places.
